Reference: PubChem BioAssay AID1452 (National Center for Advancing Translational Sciences (NCATS), 2008)
The entries are a selection whose mix differs from that of the whole data set. Active and inactive are the calls of the source. Calls follow the shape of the dose curve; as a rule, active = well fitted inhibition curve with a large enough effect; inconclusive = small, poorly fitted or top-dose-only effect; inactive = flat fitted curve, though single readings scatter.

Protein sequences, listed by entry. Tags and fused reporters are not part of them.
UniProt P18054, whole entry: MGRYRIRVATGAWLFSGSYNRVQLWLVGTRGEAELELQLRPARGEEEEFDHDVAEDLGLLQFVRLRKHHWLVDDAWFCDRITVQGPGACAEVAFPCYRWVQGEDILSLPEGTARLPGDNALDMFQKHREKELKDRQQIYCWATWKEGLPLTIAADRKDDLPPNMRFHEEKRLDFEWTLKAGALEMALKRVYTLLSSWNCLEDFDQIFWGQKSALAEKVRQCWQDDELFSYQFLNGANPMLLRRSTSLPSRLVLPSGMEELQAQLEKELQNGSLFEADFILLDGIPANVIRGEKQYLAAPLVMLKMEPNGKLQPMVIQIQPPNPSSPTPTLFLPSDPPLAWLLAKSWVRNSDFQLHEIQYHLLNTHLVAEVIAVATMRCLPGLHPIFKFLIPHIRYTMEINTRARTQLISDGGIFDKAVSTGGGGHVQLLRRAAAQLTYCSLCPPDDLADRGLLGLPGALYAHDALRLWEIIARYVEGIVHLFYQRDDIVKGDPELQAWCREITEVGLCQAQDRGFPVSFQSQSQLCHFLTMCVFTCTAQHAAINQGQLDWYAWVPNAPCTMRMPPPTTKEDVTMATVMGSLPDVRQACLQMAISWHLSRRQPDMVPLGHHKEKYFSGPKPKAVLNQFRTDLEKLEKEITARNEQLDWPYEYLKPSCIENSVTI

These compounds were tested against Polyunsaturated fatty acid lipoxygenase ALOX12 (Homo sapiens) (UniProt P18054) (assay: qHTS Assay for Inhibitors of 12-hLO (12-human lipoxygenase)). Settings: purified 12-hLO, xylenol orange hydroperoxide absorbance; at 57.1 µM (top of the series) unless noted.
From the text: Assay Provider: Holman, T.R., University of California, Santa Cruz Screening Center PI: Austin, C.P. Screening Center: NIH Chemical Genomics Center [NCGC] Human lipoxygenase 12hLO is a member of the closely related lipoxygenase family of enzymes which catalyze the site-specific oxidation of arachidonic acid to various hormone precursor molecules and as such is a candidate for drug development in a variety of disease areas, such as cancer and inflammation. Inhibition of 12hLO activity was screened by utilizing arachidonic acid as a substrate. The extent of hydroperoxide product formation was measured by a secondary chromogenic reaction in which xylenol orange (XO, Sigma-Aldrich, cat. number 39,818-7) reacts with the ferric ions produced from the reaction between the hydroperoxide and ferrous ions. The Fe(III)-XO complex is characterized with red-shifted absorbance at 560 nm. A purified preparation of human 12hLO was supplied by Professor Ted Holman, University of California, Santa Cruz.
Assay Protocol: Buffer: 25 mM Hepes pH 7.0, 0.01% Triton X-100. Reagents/Controls: Buffer in columns 3 and 4 as negative control (no enzyme). Substrate solution: 40 uM arachidonic acid (Sigma-Aldrich, St. Louis, MO) final concentration dispensed throughout the plate. Enzyme: 150 nM 12hLO final concentration in columns 1, 2, 5-48. Column 1 is neutral (100% activity). Column 2 contained pin-transferred titration of NDGA (nordihidroguaiaretic acid, Sigma-Aldrich, N 5023, top concentration 20 mM in DMSO, then 1:3 dilution in duplicate). (Dilution factor: 23 nL into 4 uL.) Chromogenic detection reagent (divalent iron/xylenol orange, Fe-XO): 200 uM xylenol orange plus 300 uM ferrous ammonium sulfate prepared freshly in 50 mM sulfuric acid. Assay Steps: Three uL of enzyme were dispensed to 1536-well Greiner black clear bottom plates. Compounds and controls (23 nL) were transferred via Kalypsys PinTool. The plates were incubated for 15 min at room temperature, and then 1 uL of substrate solution was added to start the reaction. After room temperature incubation for 30 minutes, 4 uL of Fe-XO solution was added to each well and the plates were incubated for 30 min. The absorbance at 405 and 573 nm were measured using ViewLux (Perkin-Elmer) High-throughput CCD imager and absorbance protocol settings. The 573-to-405 absorbance ratio was used to compute reaction progress.
% is scaled to controls: 0 for no effect and ±100 for the full control effect.
Also: nearly all actives have a fitted effect of over 55% in size.

**Q.** For `NC1CCCCC1.NP(=O)(O)N(CCCl)CCCl`, which activity change, negative = inhibition is on record?
**A.** The activity change, negative = inhibition was inactive: -1.23% [at 11.4 µM].

**Q.** Which activity change, negative = inhibition does the source give for `CCOP(=O)(Cl)Cl` here?
**A.** Its activity change, negative = inhibition is inactive: 0.185%.

**Q.** For `O=C(NCC1(N2CCOCC2)CCCCC1)c1cc(=O)[nH]c2ccccc12`, which activity change, negative = inhibition is on record?
**A.** Its activity change, negative = inhibition is inactive: 7.43%.

**Q.** With `CN1CCN(CCOC(=O)C(O)(c2ccccc2)c2ccccc2)CC1` as the compound, how does the activity change, negative = inhibition read?
**A.** Its activity change, negative = inhibition is inactive: 2.33%.

**Q.** With `N#CC1(Nc2ccccc2)CCN(CCc2ccccc2)CC1` as the compound, how does the activity change, negative = inhibition read?
**A.** The activity change, negative = inhibition was inactive: -12.8%.

**Q.** Which activity change, negative = inhibition does the source give for `COc1ccc(NC2CCN(CCc3ccccc3)CC2)c(OC)c1` here?
**A.** Its activity change, negative = inhibition is inactive: -11.5%.

**Q.** Which activity change, negative = inhibition does the source give for `O=C(OC1CN2CCC1CC2)C1c2ccccc2Oc2ccccc21` (configuration not stated) here?
**A.** The activity change, negative = inhibition was inactive: 1.04%.

**Q.** With `O=C(NCC1(N2CCOCC2)CCCCC1)c1cc2ccccc2o1` as the compound, how does the activity change, negative = inhibition read?
**A.** Its activity change, negative = inhibition is inactive: -10.3%.

**Q.** For `CCC(CO)(C(=O)OC1CN2CCC1CC2)c1ccccc1` (configuration not stated), which activity change, negative = inhibition is on record?
**A.** Its activity change, negative = inhibition is inactive: -1.9%.

**Q.** How did the activity change, negative = inhibition turn out when `O=C(O)C1(Nc2ccccc2)CCN(Cc2ccccc2)CC1` was run?
**A.** Its activity change, negative = inhibition is inactive: 2.3% [at 11.4 µM].

**Q.** `CCOc1ncccc1C(=O)NCC1(N2CCOCC2)CCCCC1` was tested. Which activity change, negative = inhibition did it give?
**A.** The activity change, negative = inhibition was inactive: -0.138%.

**Q.** With `CCN1CCC(Nc2cccc(F)c2)CC1` as the compound, how does the activity change, negative = inhibition read?
**A.** Its activity change, negative = inhibition is inactive: -1.72%.

**Q.** For `Fc1ccccc1NC1CCN(Cc2ccccc2)CC1`, which activity change, negative = inhibition is on record?
**A.** The activity change, negative = inhibition was inactive: -2.89%.

**Q.** How did the activity change, negative = inhibition turn out when `ClCCOP(OCCCl)OCCCl` was run?
**A.** Its activity change, negative = inhibition is inactive: -5.84%.

**Q.** `c1ccc(CN2CCC(Nc3ccccc3)CC2)cc1` was tested. Which activity change, negative = inhibition did it give?
**A.** The activity change, negative = inhibition was inactive: -1.3%.

**Q.** For `O=C(OC1CN2CCC1CC2)C1c2ccccc2C=Cc2ccccc21` (configuration not stated), which activity change, negative = inhibition is on record?
**A.** Its activity change, negative = inhibition is inactive: 5.06%.

**Q.** `N/C(=N\O)c1c(N)no[n+]1[O-]` was tested. Which activity change, negative = inhibition did it give?
**A.** The activity change, negative = inhibition was inactive: -3.53%.
